Measured values from patent publication US8329644B2, “Lantibiotic-based compounds having antimicrobial activity” (Novacta Biosystems Limited, priority 2007, dated 2012).

Assay: Stability in simulated gastric fluid (SGF)
Assay type: in vitro ADME
Settings: 37° C., analytical HPLC
Description: Nisin, mersacidin, compound I and compound III were tested for their susceptibility towards enzymatic digestion in the stomach. Nisin, mersacidin and compound III were tested for their susceptibility towards enzymatic digestion in the intestine. The SGF and SIF were based on the standard USP solutions for simulated gastric and simulated intestinal fluids and their activity confirmed against Bovine Serum Albumin (Hilger et al, Clin. Exp. Immunol. 2001, 123, 387-94). The compounds were incubated in SGF or SIF at 37° C. and their concentrations quantified by analytical HPLC (UV detection at 210 nm). The potential degradation of each compound was also monitored qualitatively by measuring in vitro antibacterial activity against Micrococcus luteus.

With mersacidin [reference compound] the “degradation in Simulated Gastric Fluid” value was “did not show appreciable degradation”.
